Measured values as given in US7727998B2, “Melanin-concentrating hormone receptor antagonists containing piperidine derivatives as the active ingredient” (Banyu Pharmaceutical Co., Ltd., priority 2003, dated 2010).

By UniProt entry, the sequences of proteins in these tests, tags left out. Where a name states a change or a piece, a line headed by the entry shows the natural chain unless it says otherwise.
UniProt Q99705: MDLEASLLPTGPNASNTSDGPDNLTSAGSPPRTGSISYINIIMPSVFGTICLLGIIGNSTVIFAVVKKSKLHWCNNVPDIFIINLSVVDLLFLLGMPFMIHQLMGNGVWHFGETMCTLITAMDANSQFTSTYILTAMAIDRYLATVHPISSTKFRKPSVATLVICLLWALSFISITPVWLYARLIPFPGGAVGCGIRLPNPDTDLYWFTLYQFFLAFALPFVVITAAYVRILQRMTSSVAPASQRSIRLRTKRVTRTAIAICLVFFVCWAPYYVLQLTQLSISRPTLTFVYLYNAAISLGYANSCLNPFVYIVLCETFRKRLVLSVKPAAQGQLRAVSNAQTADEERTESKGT

Biological target: human MCH-1R (Homo sapiens, UniProt Q99705)
Assay: MCH binding inhibition test
Conditions: inhibition of specific [125I]MCH (50 pM) binding; membranes of MCH-1R expressing CHO-K1 cells; 25° C., one hour, pH 7.4
From the text: Pharmacological Test Example 1
(MCH Binding Inhibition Test)
A human MCH-1R encoding cDNA sequence [FEBS Letters, Vol. 398, p. 253 (1996); Biochimica et Biophisica Acta, Vol. 1401, p. 216 (1998)] was cloned to plasmid vector pEF/mic/cyto (Invitrogen Corporation). The obtained expression vector was transfected to a host cell CHO-K1 (American Type Culture Collection) using lipofectamine plus reagent (Life Technology Inc.) to provide MCH-1R expression cells.
Membrane samples prepared from the MCH-1R expression cells were incubated with each test compound and 50 pM of [^125I]MCH (NEN Co.), in an assay buffer (50 mM Tris buffer comprising 10 mM magnesium chloride, 2 mM ethylenediamine tetraacetate, 0.01% bacitracin and 0.2% bovine serum albumin; pH 7.4) at 25° C. for an hour, followed by filtration through Glass Filter GF/C (Wattman Co.). After washing the glass filter with 50 mM Tris buffer (pH7.4) comprising 10 mM magnesium chloride, 2 mM ethylenediamine tetraacetate and 0.04% Tween-20, radiative activity on the glass filter was measured. Non-specific binding was measured in the presence of 1 μM human MCH and 50% inhibition concentration (IC50 value) of each test compound to specific [^125] MCH binding was determined.

CN(CCCN1CCC2(CC1)OCc1ccncc12)C(=O)C(O)(c1ccc(F)nc1)c1ccc(F)c(F)c1 (stereo not shown)
pIC50: 8.77

pIC50: −log10 of the molar value.
